Results from patent US20160024487.

Assays:
[1] = tested on: Lys(Dnp)-ASTAVVIAGRIVGG-Lys(Abz)
[2] = tested on: Lys(Dnp)-ATNATAAPRIVGG-Lys(Abz)
[3] = tested on: Lys(Dnp)-ATNATDAPRIVGG-Lys(Abz)
[4] = tested on: Lys(Dnp)-ATNATDHPRIVGG-Lys(Abz)
[5] = tested on: Lys(Dnp)-ATNATFAPRIVGG-Lys(Abz)
[6] = tested on: Lys(Dnp)-ATNATFKPRIVGG-Lys(Abz)
[7] = tested on: Lys(Dnp)-ATNATFLPRIVGG-Lys(Abz)
[8] = tested on: Lys(Dnp)-ATNATGGPRIVGG-Lys(Abz)
[9] = tested on: Lys(Dnp)-ATNATGSPRIVGG-Lys(Abz)
[10] = tested on: Lys(Dnp)-ATNATHKPRIVGG-Lys(Abz)
[11] = tested on: Lys(Dnp)-ATNATIKPRIVGG-Lys(Abz)
[12] = tested on: Lys(Dnp)-ATNATILPRIVGG-Lys(Abz)
[13] = tested on: Lys(Dnp)-ATNATIMPRIVGG-Lys(Abz)
[14] = tested on: Lys(Dnp)-ATNATIRPRIVGG-Lys(Abz)
[15] = tested on: Lys(Dnp)-ATNATIYPRIVGG-Lys(Abz)
[16] = tested on: Lys(Dnp)-ATNATLPPRIVGG-Lys(Abz)
[17] = tested on: Lys(Dnp)-ATNATLRPRIVGG-Lys(Abz)
[18] = tested on: Lys(Dnp)-ATNATMAPRIVGG-Lys(Abz)
[19] = tested on: Lys(Dnp)-ATNATMMPRIVGG-Lys(Abz)
[20] = tested on: Lys(Dnp)-ATNATPFPRIVGG-Lys(Abz)
[21] = tested on: Lys(Dnp)-ATNATPIPRIVGG-Lys(Abz)
[22] = tested on: Lys(Dnp)-ATNATPWPRIVGG-Lys(Abz)
[23] = tested on: Lys(Dnp)-ATNATQTPRIVGG-Lys(Abz)
[24] = tested on: Lys(Dnp)-ATNATQWPRIVGG-Lys(Abz)
[25] = tested on: Lys(Dnp)-ATNATSAPRIVGG-Lys(Abz)
[26] = tested on: Lys(Dnp)-ATNATSQPRIVGG-Lys(Abz)
[27] = tested on: Lys(Dnp)-ATNATTDPRIVGG-Lys(Abz)
[28] = tested on: Lys(Dnp)-ATNATTWPRIVGG-Lys(Abz)
[29] = tested on: Lys(Dnp)-ATNATVHPRIVGG-Lys(Abz)
[30] = tested on: Lys(Dnp)-ATNATVIPRIVGG-Lys(Abz)
[31] = tested on: Lys(Dnp)-ATNATVYPRIVGG-Lys(Abz)
[32] = tested on: Lys(Dnp)-ATNATX4X3PRIVGG-Lys(Abz), X4 = G, X3 = Q
[33] = tested on: Lys(Dnp)-ATNATX4X3PRIVGG-Lys(Abz), X4 = N, X3 = F
[34] = tested on: Lys(Dnp)-ATNATX4X3PRIVGG-Lys(Abz), X4 = N, X3 = M
[35] = tested on: Lys(Dnp)-ATNATX4X3PRIVGG-Lys(Abz), X4 = P, X3 = N
[36] = tested on: Lys(Dnp)-ATNATX4X3PRIVGG-Lys(Abz), X4 = Q, X3 = M
[37] = tested on: Lys(Dnp)-ATNATX4X3PRIVGG-Lys(Abz), X4 = S, X3 = T
[38] = tested on: Lys(Dnp)-ATNATX4X3PRIVGG-Lys(Abz), X4 = T, X3 = I
[39] = tested on: Lys(Dnp)-ATNATYDPRIVGG-Lys(Abz)
[40] = tested on: Lys(Dnp)-ATNATYNPRIVGG-Lys(Abz)
[41] = tested on: Lys(Dnp)-ATNATYQPRIVGG-Lys(Abz)
[42] = tested on: Lys(Dnp)-ATNATYTPRIVGG-Lys(Abz)

Human plasma purified α-thrombin
FIIa kcat/KM [1]: 0.31 M⁻¹ s⁻¹
Functional Selectivity (Specificity*FIIa kcat/KM) [1]: 0.045
Specificity Ratio (FIIa/FXa) [1]: 0
kcat/KM [1]: 0.31 M⁻¹ s⁻¹
FIIa kcat/KM [2]: 6200 M⁻¹ s⁻¹
Functional Selectivity (Specificity*FIIa kcat/KM) [2]: 860000
kcat/KM [2]: 6200 M⁻¹ s⁻¹
kcat/KM [3]: 7.7 M⁻¹ s⁻¹
FIIa kcat/KM [4]: 1000 M⁻¹ s⁻¹
Specificity Ratio (FIIa/FXa) [4]: 200
FIIa kcat/KM [5]: 8900 M⁻¹ s⁻¹
Specificity Ratio (FIIa/FXa) [5]: 68
kcat/KM [5]: 8900 M⁻¹ s⁻¹
FIIa kcat/KM [6]: 25000 M⁻¹ s⁻¹
Functional Selectivity (Specificity*FIIa kcat/KM) [6]: 1.2e+07
kcat/KM [6]: 25000 M⁻¹ s⁻¹
FIIa kcat/KM [7]: 9500 M⁻¹ s⁻¹
Specificity Ratio (FIIa/FXa) [7]: 18
kcat/KM [7]: 9500 M⁻¹ s⁻¹
kcat/KM [8]: 820 M⁻¹ s⁻¹
kcat/KM [9]: 1300 M⁻¹ s⁻¹
kcat/KM [10]: 1200 M⁻¹ s⁻¹
FIIa kcat/KM [11]: 24000 M⁻¹ s⁻¹
Functional Selectivity (Specificity*FIIa kcat/KM) [11]: 4.7e+06
kcat/KM [11]: 24000 M⁻¹ s⁻¹
FIIa kcat/KM [12]: 15000 M⁻¹ s⁻¹
Specificity Ratio (FIIa/FXa) [12]: 21
kcat/KM [12]: 15000 M⁻¹ s⁻¹
FIIa kcat/KM [13]: 41000 M⁻¹ s⁻¹
Functional Selectivity (Specificity*FIIa kcat/KM) [13]: 820000
kcat/KM [13]: 41000 M⁻¹ s⁻¹
FIIa kcat/KM [14]: 37000 M⁻¹ s⁻¹
Functional Selectivity (Specificity*FIIa kcat/KM) [14]: 1.8e+06
kcat/KM [14]: 37000 M⁻¹ s⁻¹
FIIa kcat/KM [15]: 18000 M⁻¹ s⁻¹
Functional Selectivity (Specificity*FIIa kcat/KM) [15]: 1.5e+06
kcat/KM [15]: 18000 M⁻¹ s⁻¹
FIIa kcat/KM [16]: 11 M⁻¹ s⁻¹
Functional Selectivity (Specificity*FIIa kcat/KM) [16]: 75
Specificity Ratio (FIIa/FXa) [16]: 7
kcat/KM [16]: 11 M⁻¹ s⁻¹
FIIa kcat/KM [17]: 45000 M⁻¹ s⁻¹
Functional Selectivity (Specificity*FIIa kcat/KM) [17]: 3.3e+06
kcat/KM [17]: 45000 M⁻¹ s⁻¹
FIIa kcat/KM [18]: 12000 M⁻¹ s⁻¹
Specificity Ratio (FIIa/FXa) [18]: 32
kcat/KM [18]: 12000 M⁻¹ s⁻¹
FIIa kcat/KM [19]: 28000 M⁻¹ s⁻¹
Functional Selectivity (Specificity*FIIa kcat/KM) [19]: 760000
kcat/KM [19]: 28000 M⁻¹ s⁻¹
Functional Selectivity (Specificity*FIIa kcat/KM) [20]: 1.2e+06
FIIa kcat/KM [21]: 18000 M⁻¹ s⁻¹
Specificity Ratio (FIIa/FXa) [21]: 30
kcat/KM [21]: 18000 M⁻¹ s⁻¹
FIIa kcat/KM [22]: 27000 M⁻¹ s⁻¹
Functional Selectivity (Specificity*FIIa kcat/KM) [22]: 620000
Specificity Ratio (FIIa/FXa) [22]: 21
kcat/KM [22]: 27000 M⁻¹ s⁻¹
kcat/KM [23]: 7400 M⁻¹ s⁻¹
kcat/KM [24]: 7800 M⁻¹ s⁻¹
kcat/KM [25]: 790 M⁻¹ s⁻¹
kcat/KM [26]: 1200 M⁻¹ s⁻¹
FIIa kcat/KM [27]: 1000 M⁻¹ s⁻¹
Specificity Ratio (FIIa/FXa) [27]: 91
FIIa kcat/KM [28]: 2700 M⁻¹ s⁻¹
Specificity Ratio (FIIa/FXa) [28]: 132
kcat/KM [28]: 2700 M⁻¹ s⁻¹
FIIa kcat/KM [29]: 13000 M⁻¹ s⁻¹
Functional Selectivity (Specificity*FIIa kcat/KM) [29]: 2.5e+06
kcat/KM [29]: 13000 M⁻¹ s⁻¹
FIIa kcat/KM [30]: 13000 M⁻¹ s⁻¹
Functional Selectivity (Specificity*FIIa kcat/KM) [30]: 1.4e+06
kcat/KM [30]: 13000 M⁻¹ s⁻¹
FIIa kcat/KM [31]: 11000 M⁻¹ s⁻¹
Functional Selectivity (Specificity*FIIa kcat/KM) [31]: 2e+06
kcat/KM [31]: 11000 M⁻¹ s⁻¹
FIIa kcat/KM [32]: 1400 M⁻¹ s⁻¹
Specificity Ratio (FIIa/FXa) [32]: 15
FIIa kcat/KM [33]: 780 M⁻¹ s⁻¹
Specificity Ratio (FIIa/FXa) [33]: 56
FIIa kcat/KM [34]: 720 M⁻¹ s⁻¹
Specificity Ratio (FIIa/FXa) [34]: 27
FIIa kcat/KM [35]: 6700 M⁻¹ s⁻¹
Specificity Ratio (FIIa/FXa) [35]: 12
FIIa kcat/KM [36]: 8100 M⁻¹ s⁻¹
Specificity Ratio (FIIa/FXa) [36]: 4
FIIa kcat/KM [37]: 1400 M⁻¹ s⁻¹
Specificity Ratio (FIIa/FXa) [37]: 45
FIIa kcat/KM [38]: 1200 M⁻¹ s⁻¹
Specificity Ratio (FIIa/FXa) [38]: 19
kcat/KM [39]: 890 M⁻¹ s⁻¹
FIIa kcat/KM [40]: 2200 M⁻¹ s⁻¹
Specificity Ratio (FIIa/FXa) [40]: 44
kcat/KM [40]: 2200 M⁻¹ s⁻¹
FIIa kcat/KM [41]: 8600 M⁻¹ s⁻¹
Functional Selectivity (Specificity*FIIa kcat/KM) [41]: 1.2e+06
kcat/KM [41]: 8600 M⁻¹ s⁻¹
FIIa kcat/KM [42]: 7500 M⁻¹ s⁻¹
Functional Selectivity (Specificity*FIIa kcat/KM) [42]: 2e+06
kcat/KM [42]: 7500 M⁻¹ s⁻¹
